Measurements from patent US12233083B2, “Methods for the use of 5′-adenosine diphosphate ribose (ADPR)” (Invirsa, Inc., priority 2018, dated 2025).
Read-outs that look alike come from different tables or passages of the source.

By UniProt entry, the sequences of proteins in these tests, tags left out.
UniProt Q8N6T7, whole entry: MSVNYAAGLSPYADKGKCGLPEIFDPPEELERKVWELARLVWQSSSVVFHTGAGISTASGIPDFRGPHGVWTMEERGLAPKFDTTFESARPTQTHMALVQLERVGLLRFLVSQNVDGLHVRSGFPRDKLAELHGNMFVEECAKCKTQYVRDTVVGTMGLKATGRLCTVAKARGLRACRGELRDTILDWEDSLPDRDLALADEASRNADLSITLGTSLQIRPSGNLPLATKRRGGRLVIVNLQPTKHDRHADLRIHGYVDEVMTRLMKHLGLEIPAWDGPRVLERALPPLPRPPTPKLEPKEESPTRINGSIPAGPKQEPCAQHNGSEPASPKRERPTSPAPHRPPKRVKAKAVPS

Columns and labels:
Pax6 (isoforms 5a and 6) = experiment: Pax6 expression by western blot in human corneal epithelial cells; type: cell-based; details: 60 μM
Protocol: Serum starvation media was aspirated and cells were treated with corresponding Li2-ADPR treatment at 60 μM in serum starvation media. […] Supernatants were collected and total protein concentration for each sample was measured using spectrophotometric methods.
Western Blot: Samples were prepared in 2× Laemmli sample buffer and boiled at 95° C. for 5 minutes. […] Proteins are electrophoresed at 125V for approximately 50 minutes then transferred to nitrocellulose.

[1] = biological target: purified recombinant GST-SIRT6 protein (Homo sapiens, UniProt Q8N6T7); details: 0.1 and 1 μM, repeat study
Protocol: This first set of studies was performed using a Western blot method (Rahnasto-Rilla, 2016, Methods Mol. Biol., 1436:259-269) for the in vitro evaluation of Sirt6 deacetylation activity. […] Acetylation level was detected with anti-H3K9Ac antibody and normalized to total H3 histone (FIG. 5 (b)).

cytokeratin 12 = details: 60 μM
p53 = details: 60 μM
Sirt6 = details: 60 μM, 60 minutes

For `Nc1ncnc2c1ncn2[C@@H]1O[C@H](COP(=O)([O-])OP(=O)([O-])OC[C@H]2OC(O)[C@H](O)[C@@H]2O)[C@@H](O)[C@H]1O.[Li+].[Li+]` (stereo partly drawn) [Li2-ADPR, dilithium ADPR], the “Pax6 isoform 5a protein concentration relative to baseline” value (Pax6 (isoforms 5a and 6); 30 minutes) was 188%, the “Pax6 isoform 6 protein concentration relative to baseline” value (Pax6 (isoforms 5a and 6); 30 minutes) was 179% and the “Pax6 isoform 5a protein concentration relative to baseline” value (Pax6 (isoforms 5a and 6); 60 minutes) was 584%. The “Pax6 isoform 6 protein concentration relative to baseline” value (Pax6 (isoforms 5a and 6); 60 minutes) was 302%, the “Pax6 isoform 5a protein concentration relative to baseline” value (Pax6 (isoforms 5a and 6); two hours) was 206% and the “Pax6 isoform 6 protein concentration relative to baseline” value (Pax6 (isoforms 5a and 6); two hours) was 197%. For the same compound, the “ratio of H3K9Ac to total H3 (H3K9Ac/H3)” value [1] was “significantly reduced”, the “cytokeratin 12 dimer form relative to baseline” value (cytokeratin 12; 30 minutes) was 139% and the “cytokeratin 12 monomer form relative to baseline” value (cytokeratin 12; 30 minutes) was 269%. For the same compound, the “cytokeratin 12 dimer form relative to baseline” value (cytokeratin 12; 60 minutes) was 219%, the “cytokeratin 12 monomer form relative to baseline” value (cytokeratin 12; 60 minutes) was 789% and the “cytokeratin 12 dimer form relative to baseline” value (cytokeratin 12; 120 minutes) was 201%. The “cytokeratin 12 monomer form relative to baseline” value (cytokeratin 12; 120 minutes) was 505%, the “p53 protein concentration relative to baseline (No Treat lane)” value (p53; 15 minutes) was 313% and the “p53 protein concentration relative to baseline (No Treat lane)” value (p53; 30 minutes) was 535%. The “p53 protein concentration relative to baseline (No Treat lane)” value (p53; 60 minutes) was 407%, the “p53 protein concentration relative to baseline (No Treat lane)” value (p53; 120 minutes) was 510% and the “Sirt6 protein concentration relative to baseline (No Treat lane)” value (Sirt6) was 135%.
